# Test results reported in PubChem BioAssay AID720543 (The Scripps Research Institute Molecular Screening Center, 2013).
# Amino acid sequences for entries named in this document (tags omitted).
# UniProt Q8VD66, whole entry: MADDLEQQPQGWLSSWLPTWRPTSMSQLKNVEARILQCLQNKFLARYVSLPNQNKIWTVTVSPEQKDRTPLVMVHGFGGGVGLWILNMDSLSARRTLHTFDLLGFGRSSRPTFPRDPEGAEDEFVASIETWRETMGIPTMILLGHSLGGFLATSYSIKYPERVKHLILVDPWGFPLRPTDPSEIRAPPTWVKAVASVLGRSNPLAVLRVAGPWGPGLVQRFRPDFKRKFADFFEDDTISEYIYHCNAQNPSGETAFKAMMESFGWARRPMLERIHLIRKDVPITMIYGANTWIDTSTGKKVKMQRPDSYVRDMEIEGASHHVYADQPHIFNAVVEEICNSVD
# The entries are a selection whose mix differs from that of the whole data set. The source made the active and inactive calls.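 The calls were made as follows: active = inhibition exceeding the mean over every tested compound plus 3 SD (cut at about 30% in these data); inactive = the rest.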
# Molecular target: (Lyso)-N-acylphosphatidylethanolamine lipase (Mus musculus) (UniProt Q8VD66)
# Assay: mouse ABHD4 hydrolase activity blockers – biochemical, fluorescence polarization, primary screen (AID 720543);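 also: 0% = plate median of compound wells and 100% = S159A mutant with DMSO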
# Details: purified mABHD4, FP-Rh probe fluorescence polarization; at 8.92 µM; active compounds read high
# Procedure, shortened: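 Assay system: wild-type mouse ABHD4 protein; compound: single nominal dose of 8.92 µM, 0.89% DMSO final; schedule: 45 min + 60 min at 25 °C; measured by: FP readout, ex 525 nm / em 598 nm; evaluation: % inhibition of FP-Rh probe binding versus controls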
row,SMILES,inhibition
1,CN(C)C1(CNC(=O)c2cccc(C#N)c2)CCCCC1,inactive: -0.32%
2,C/C(N)=N\P(=O)(Oc1ccccc1)Oc1ccccc1,inactive: -2.25%
3,c1ccc(CN2CCC(Nc3ccccc3)CC2)cc1,inactive: -5.37%
4,Cc1cc(N(CCCl)CCCl)ccc1C=O,inactive: 1.39%
5,O=c1[nH]c2ccccc2n1C1CCN(C(c2ccccc2)c2nnnn2C2CCCC2)CC1 (stereo not given),inactive: 2.23%
6,CCCN1CCC(Nc2cc(OC)cc(OC)c2)CC1,inactive: -5.41%
7,CC(C)(C)n1nnnc1C(c1cccc2ccccc12)N1CCC(n2c(=O)[nH]c3ccccc32)CC1 (stereo not given),inactive: -15.8%
8,N#Cc1ccc(C(=O)NCC2(N3CCCCC3)CCCCC2)cc1,inactive: 2.56%
9,CC(C)(C)OC(=O)N1CCC(N(C(=O)c2ccccc2)c2ccc(Cl)cc2)CC1,inactive: -1.8%
10,CCOC(=O)N1CCC(Nc2ccc(C)cc2)CC1,inactive: -3.21%
11,COc1cccc(C(c2nnnn2C(C)(C)C)N2CCC(n3c(=O)[nH]c4ccccc43)CC2)c1OC (stereo not given),inactive: 2.48%
12,N/C(=N\O)c1c(N)no[n+]1[O-],inactive: 3.72%
13,O=C(OC1CN2CCC1CC2)C1c2ccccc2C=Cc2ccccc21 (stereo not given),inactive: 2.36%
14,O=c1[nH]c2ccccc2n1C1CCN(C(c2cccs2)c2nnnn2C2CCCC2)CC1 (stereo not given),inactive: -7.63%
15,CCCCn1nnnc1C(c1cccc(OC)c1OC)N1CCC(n2c(=O)[nH]c3ccccc32)CC1 (stereo not given),inactive: -0.85%
16,CCCCn1nnnc1C(c1ccccc1)N1CCC(n2c(=O)[nH]c3ccccc32)CC1 (stereo not given),inactive: -6.34%
17,COc1cc(C(=O)NCC2(N3CCOCC3)CCCCC2)cc(OC)c1C,inactive: -6.49%
18,O=C(NCC1(N2CCOCC2)CCCCC1)c1cc(Br)ccc1Cl,inactive: -0.11%
19,O=c1[nH]c2ccccc2n1C1CCN(C(c2cccs2)c2nnnn2C2CCCCC2)CC1 (stereo not given),inactive: -8.08%
20,NC(=O)C1(Nc2ccccc2)CCN(Cc2ccccc2)CC1,inactive: 5.2%
21,COc1ccc(C(=O)NCC2(N3CCOCC3)CCCCC2)cc1OC,inactive: -5.44%
22,O=c1[nH]c2ccccc2n1C1CCN(C(c2ccnc3ccccc23)c2nnnn2C2CCCC2)CC1 (stereo not given),inactive: 2.21%
23,COc1cccc(C(=O)N(c2cc(C)cc(C)c2)C2CCN(C(=O)OC(C)(C)C)CC2)c1,inactive: 3.47%
24,COc1cccc(C(c2nnnn2C2CCCC2)N2CCC(n3c(=O)[nH]c4ccccc43)CC2)c1OC (stereo not given),inactive: -5.47%
25,COc1cc(OC)cc(C(=O)NCC2(N3CCOCC3)CCCCC2)c1,inactive: -4.55%
26,CCC(CO)(C(=O)OC1CN2CCC1CC2)c1ccccc1 (stereo not given),inactive: 7.53%
27,CN1CCC(Nc2ccc(Cl)cc2)CC1,inactive: -1.93%
28,CCOc1ncccc1C(=O)NCC1(N2CCOCC2)CCCCC1,inactive: 1.78%

row,SMILES,inhibition
1,CN1CCC(Nc2ccc(F)c(Cl)c2)CC1,inactive: 15.4%
2,CC(C)(C)OC(=O)N1CCC(Nc2ccccc2)CC1,inactive: -3.29%
3,NN(c1ccccc1)C1CCN(CCc2ccccc2)CC1,inactive: 3.06%
4,O=C(O)C1(Nc2ccccc2)CCN(Cc2ccccc2)CC1,inactive: -1.36%
5,O=c1[nH]c2ccccc2n1C1CCN(C(c2cc3ccccc3o2)c2nnnn2C2CCCC2)CC1 (stereo not given),inactive: -10.5%
6,CCCOc1ccc(C(=O)NCC2(N(C)C)CCCCC2)cc1,inactive: 5.83%
7,Cc1ccccc1NC1(C#N)CCN(Cc2ccccc2)CC1,inactive: 5.64%
8,CCN1CCC(Nc2cccc(F)c2)CC1,inactive: 19.2%
9,COc1ccc(C(c2nnnn2C2CCCCC2)N2CCC(n3c(=O)[nH]c4ccccc43)CC2)cc1 (stereo not given),inactive: 1.15%
10,CC(C)(C)n1nnnc1C(c1ccnc2ccccc12)N1CCC(n2c(=O)[nH]c3ccccc32)CC1 (stereo not given),inactive: 9.78%
11,O=C(NCC1(N2CCCCC2)CCCCC1)c1ccco1,inactive: -21.5%
12,CN(C)c1ccc(C(=O)NCC2(N3CCCCC3)CCCCC2)cc1,inactive: 2.11%
13,Cn1c(=O)[nH]cc(N(CCCl)CCCl)c1=O,inactive: 2.35%
14,COc1cccc(C(c2nnnn2C2CCCCC2)N2CCC(n3c(=O)[nH]c4ccccc43)CC2)c1OC (stereo not given),inactive: -17%
15,CC(=O)N(c1ccccc1)C1CCNCC1,inactive: -3.56%
16,CCC(c1nnnn1C1CCCCC1)N1CCC(n2c(=O)[nH]c3ccccc32)CC1 (stereo not given),inactive: -12%
17,COc1cc(OC)cc(C(=O)NCC2(N3CCCCC3)CCCCC2)c1,inactive: 0.02%
18,O=c1[nH]c2ccccc2n1C1CCN(C(c2ccnc3ccccc23)c2nnnn2C2CCCCC2)CC1 (stereo not given),inactive: -5.31%
19,Cc1ccc(C(=O)NCC2(N3CCCCC3)CCCCC2)o1,inactive: 18.4%
20,Fc1ccccc1NC1CCN(Cc2ccccc2)CC1,inactive: -3.02%
21,Cc1ccc(NC2(C#N)CCN(Cc3ccccc3)CC2)cc1,inactive: -1.58%
22,O=c1[nH]c2ccccc2n1C1CCN(C(c2ccccc2)c2nnnn2C2CCCCC2)CC1 (stereo not given),inactive: 4.54%
23,CCOC(=O)N1CCC(Nc2cccc(C)c2)CC1,inactive: -8.65%
24,COc1cc(C(=O)NCC2(N(C)C)CCCCC2)ccc1OC(F)F,inactive: -4.02%
25,O=c1[nH]c2ccccc2n1C1CCN(C(c2cccc3ccccc23)c2nnnn2C2CCCC2)CC1 (stereo not given),inactive: -6%
26,CC(C)(C)n1nnnc1C(c1ccccc1)N1CCC(n2c(=O)[nH]c3ccccc32)CC1 (stereo not given),inactive: -7.21%
27,O=C1CCN(Cc2ccccc2)CC1,inactive: -1.08%
